Reference: publication PMC7321103, “In Vitro Metabolic Transformation of Pharmaceuticals by Hepatic S9 Fractions from Common Carp (Cyprinus carpio)” (Molecules, 2020)

Test system: common carp hepatic S9 fraction
Test: TNBP metabolite formation by common carp hepatic S9 (S9 characterization)
Settings: common carp hepatic S9, 2 µM TNBP

tris(n-butyl) phosphate
TNBP metabolite production: +
